Experimental findings from ChEMBL document CHEMBL1132115, “Discovery of the first potent and selective small molecule opioid receptor-like (ORL1) antagonist: 1-[(3R,4R)-1-cyclooctylmethyl-3- hydroxymethyl-4-piperidyl]-3-ethyl-1, 3-dihydro-2H-benzimidazol-2-one (J-113397)” (1999) are described below.

The chains behind the UniProt entries cited, without tags or fusion partners.
UniProt P41145, whole entry: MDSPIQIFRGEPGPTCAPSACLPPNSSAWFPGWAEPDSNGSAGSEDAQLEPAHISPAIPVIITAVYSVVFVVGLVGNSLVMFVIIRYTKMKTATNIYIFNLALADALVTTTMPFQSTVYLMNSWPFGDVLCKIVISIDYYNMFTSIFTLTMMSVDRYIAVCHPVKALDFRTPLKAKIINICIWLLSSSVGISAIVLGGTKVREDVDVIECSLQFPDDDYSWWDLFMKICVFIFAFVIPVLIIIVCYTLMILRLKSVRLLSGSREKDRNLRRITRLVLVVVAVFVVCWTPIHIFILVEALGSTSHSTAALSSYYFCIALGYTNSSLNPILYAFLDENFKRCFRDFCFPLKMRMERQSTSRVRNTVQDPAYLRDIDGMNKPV
UniProt P41143, whole entry: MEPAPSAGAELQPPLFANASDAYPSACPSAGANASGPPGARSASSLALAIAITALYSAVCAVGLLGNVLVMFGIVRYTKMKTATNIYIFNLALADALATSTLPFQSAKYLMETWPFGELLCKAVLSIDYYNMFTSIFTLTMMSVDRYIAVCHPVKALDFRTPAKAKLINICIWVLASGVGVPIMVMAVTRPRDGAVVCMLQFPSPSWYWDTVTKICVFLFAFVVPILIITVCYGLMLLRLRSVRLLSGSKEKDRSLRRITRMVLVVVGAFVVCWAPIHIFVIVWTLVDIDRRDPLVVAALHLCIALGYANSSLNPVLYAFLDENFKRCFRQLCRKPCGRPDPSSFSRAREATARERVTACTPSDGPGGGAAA
UniProt P41146, whole entry: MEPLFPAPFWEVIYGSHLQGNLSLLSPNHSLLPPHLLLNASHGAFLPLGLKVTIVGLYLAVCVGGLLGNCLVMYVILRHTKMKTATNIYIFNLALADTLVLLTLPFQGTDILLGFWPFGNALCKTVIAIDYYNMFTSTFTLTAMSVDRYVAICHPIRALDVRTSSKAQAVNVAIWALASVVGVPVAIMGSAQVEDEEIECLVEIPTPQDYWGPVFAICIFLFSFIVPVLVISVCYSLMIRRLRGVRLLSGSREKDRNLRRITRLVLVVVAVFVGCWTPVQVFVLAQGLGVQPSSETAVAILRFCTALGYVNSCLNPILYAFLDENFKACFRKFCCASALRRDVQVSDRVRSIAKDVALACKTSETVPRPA
UniProt P35372, whole entry: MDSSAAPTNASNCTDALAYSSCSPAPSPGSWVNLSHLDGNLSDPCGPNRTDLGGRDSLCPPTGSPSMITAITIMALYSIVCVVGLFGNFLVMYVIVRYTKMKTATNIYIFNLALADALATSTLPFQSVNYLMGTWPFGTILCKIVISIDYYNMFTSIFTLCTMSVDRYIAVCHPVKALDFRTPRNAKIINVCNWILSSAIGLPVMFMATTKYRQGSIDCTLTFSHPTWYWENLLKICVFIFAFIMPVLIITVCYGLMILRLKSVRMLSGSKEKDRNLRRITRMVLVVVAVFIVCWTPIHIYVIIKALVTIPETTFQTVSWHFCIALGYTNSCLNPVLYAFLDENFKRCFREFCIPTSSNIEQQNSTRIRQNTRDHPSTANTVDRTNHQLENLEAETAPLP

As a reminder, the IC50 is the concentration that inhibits the measured activity by half. Low values mean greater potency in that assay, high ones weaker potency in that assay. In general, EC50 refers to the midpoint of the concentration-response curve.

In test [1] the target is T1, Kappa-type opioid receptor (Homo sapiens, UniProt P41145). In words: Inhibition of [3H]U-69593 binding to human Opioid receptor kappa 1 in CHO cells.
The target in test [2] is T2, Delta-type opioid receptor (Homo sapiens, UniProt P41143). The test can be described thus: Inhibition of [3H][D-Ala2,D-Leu5]enkephalin binding to human Opioid receptor delta 1 in CHO cells.
Test [3] concerns the target T3, Nociceptin receptor (Homo sapiens, UniProt P41146). The test can be described thus: Inhibition of [125I]Tyr14-nociceptin binding to human Opioid receptor like 1 (opioid receptor like 1) in CHO cells.
In test [4] the target is T3, Nociceptin receptor. In words: Antagonistic activity measured by GTPgammaS binding against Opioid receptor like 1 in CHO cells. Background: Binding of GTPγS marks nucleotide exchange on a G protein.
Test [5] deals with Mu-type opioid receptor (Homo sapiens, UniProt P35372). In words: Inhibition of [3H]diprenorphine binding to human Opioid receptor mu 1 in CHO cells.
The target in test [6] is T3, Nociceptin receptor. In words: Agonistic activity measured by GTPgammaS binding against Opioid receptor like 1 in CHO cells.
Test [7] deals with T3, Nociceptin receptor. The test can be described thus: Agonistic activity measured by GTPgammaS binding against Opioid receptor like 1 in CHO cells.
Test [8] has as its target T3, Nociceptin receptor. In words: Binding affinity in CHO cells stably expressing cloned human Opioid receptor like 1 by displacing radioligand [125I]Tyr14-nociceptin.
The target of test [9] is T3, Nociceptin receptor. The test can be described thus: Antagonistic activity against nociceptin produced [35S]GTP-gamma-S, binding to Opioid receptor like 1 expressed in CHO cells.
Test [10] concerns the target T3, Nociceptin receptor. The test can be described thus: Agonistic activity against nociceptin produced GTPgammaS binding to Opioid receptor like 1 expressed in CHO cells.
In test [11] the target is T2, Delta-type opioid receptor. The test can be described thus: Binding affinity in CHO cells stably expressing cloned human Opioid receptor delta 1 by displacing radioligand [3H][D-Ala2,D-Leu5]enkephalin.
Test [12] concerns the target T1, Kappa-type opioid receptor. In words: Binding affinity in CHO cells stably expressing cloned human Opioid receptor kappa 1 by displacing radioligand [3H]U-69593.

Only a part of the results on these compounds is given; other tests are left out.

On to `CCn1c(=O)n(C2CCN(CC3CCCCCCC3)CC2)c2ccccc21`, for which the IC50 was 440 nM in [1]; more than 10 µM in [2]; 6.8 nM in test [3]; 20 nM in test [4]; 950 nM in [5]. Moreover, the EC50 in test [6] is more than 10 µM.
On to `O=c1[nH]c2ccccc2n1C1CCN(CC2CCCCCCC2)CC1`, for which the IC50 in test [1] was 12 nM; in [2], more than 10 µM; in [3], 6.8 nM; in test [4] it was 20 nM; in [5] it was 780 nM. This compound also showed a concentration giving a half-maximal response (EC50) in [7] of more than 10 µM.
Regarding `CC(c1ccccc1Cl)N1CCC(n2c(O)nc3ccccc32)CC1` (configuration not stated), the half-inhibitory concentration (IC50) was 5.9 nM in test [8], more than 10 µM in test [9], 1900 nM in test [11] and 32 nM in test [12]. Further, in test [10], the concentration giving a half-maximal response (EC50) was 0.025 µM.
The like results for `O=c1[nH]c2ccccc2n1C1CCN(Cc2ccccc2)CC1` were, in that order, 200 nM, more than 10 µM, more than 10000 nM, 110 nM and 6.9 µM.
